Bioassay records from PubChem.
An excerpt weighted towards active compounds, which were near 2.8% of everything screened.
MITF act: increases MITF-driven TRPM1 promoter luciferase signal | 0.75% of 300,000 active | activation, % at 12.5 µM | SK-MEL-5 TRPM1-promoter luciferase, 24 h; % of positive control, neutral wells = 0;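 active = mean activation of at least 80% with every replicate also reaching 80%; inconclusive = mean reaches 80% but some replicate falls short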
miR122 inh: blocks miR-122 activity in Huh7 sensor cells; 0.3% of 340,000 active; activation (reporter increase), % at 12.5 µM; Huh7 miR-122 Renilla luciferase sensor, 48 h; neutral wells = 0, positive control = 100;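 active = mean replicate activation score at least 90 and every replicate individually at or above 90; inconclusive = only one of the two criteria met; inactive = neither criterion met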;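 also: higher luciferase means less miR-122 activity so hits act as miR-122 inhibitors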
PglD DTNB: PglD (C. jejuni) enzyme inhibition; purified PglD enzyme, DTNB colorimetric CoA detection; inhibition, % at 12.5 µM; 0.098% of 360,000 active; in the data active = inhibition above about 16%, passing the limit was not always enough; inconclusive = no clear call, values can overlap the other calls
esBAF inh: SWI/SNF esBAF complex inhibition; mouse ES cells, Bmi1-luciferase knock-in reporter, 24 h; 100% = twice the neutral-well signal; reporter increase, % at 12.5 µM; 2% of 350,000 active; in the data active = activation above about 40%; inconclusive = no clear call, values can overlap the other calls;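 also: a rise in the Bmi1 reporter signal indicates esBAF inhibition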
UUG fidelity: modulators of start codon recognition fidelity in yeast; AID 602363; activity score, % at 18.7 µM; S. cerevisiae UUG-firefly luciferase reporter, luminescence/redox ratio; actives 0.13% (n = 350,000);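 active = replicate mean at a twofold rise or more, about +100% in these data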;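 note: firefly luciferase made from a UUG start codon reports start codon fidelity; reporter light over untreated wells divided by growth signal over untreated wells; some hits fall short of that in this replicate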
Wnt bcat act: Wnt/beta-catenin pathway activation; Wnt/beta-catenin reporter cell assay, activator, plate reader; activation, % at 9.35 µM; 1.2% of 300,000 active; AID 743398; in the data active = activation above about 30%, passing the limit was not always enough; inconclusive = no clear call, values can overlap the other calls
A number is an active result; 0 = inactive; ? = inconclusive; - = no result; [ ] = another dose, or the depositor's remark.

SMILES	MITF act	miR122 inh	PglD DTNB	esBAF inh	UUG fidelity	Wnt bcat act
COc1ccccc1S(=O)(=O)N1CC[C@@H]2[C@H](CO)Nc3ccc(-c4ccc(F)cc4)cc3[C@@H]21	-	0	0	0	0	-
COc1cc(/C=C/c2ccc3cccc(O)c3n2)c(Br)cc1O	0	0	0	40	0	0
Oc1ccc(Cl)cc1/C=C/c1ccc2cccc(O)c2n1	0	140	-	-	-	0
CCS(=O)(=O)Nc1ccc2c(c1)C(=O)N(C)C[C@@H](OC)[C@@H](C)CN(C(=O)COC)[C@@H](C)CO2	-	-	0	0	0	-
O=[N+]([O-])c1ccccc1/C=C\C=N\N1CCN(c2ccccc2)CC1	0	0	0	0	0	0
C(=C\c1ccccc1)/C=N/N1CCN(c2ccccn2)CC1	85	0	-	-	-	-
Cc1cccc(/C=N/N2CCN(c3ccccc3)CC2)c1	100	0	0	0	0	0
C(/C=C/c1ccccc1)=N/N1CCN(c2ccccc2)CC1	94	0	0	?	0	0
Cc1ccc(/C=N/N2CCN(c3ccccc3)CC2)cc1	0	-	-	-	-	0
Cc1ccc(S(=O)(=O)Nc2ccc3c(c2)C(=O)N([C@@H](C)CO)C[C@@H](C)[C@@H](CN(C)S(=O)(=O)c2ccc(F)cc2)OCCCC[C@H](C)O3)cc1	-	0	0	0	0	-
Cc1ccc2[nH]c(C(=O)Nc3ccc(F)cc3)cc2c1	0	0	0	62	0	0
Cc1cc(C)c2cc(C(=O)Nc3ccccc3)[nH]c2c1	0	0	0	60	0	0
COc1ccc(C(=O)N2C[C@H]3[C@@H](c4ccccc42)[C@H](CO)N3Cc2ccc(Cl)cc2)cc1	-	0	0	0	0	-
O=C(NCc1ccccc1)[C@H]1N[C@H]2c3ccc(-c4ccccc4)c(=O)n3C[C@H]2[C@@H]1CO	-	0	0	0	0	-
C/C(=N/OC(=O)c1ccccc1Br)c1ccc(C)cc1	0	0	0	64	0	0
CCC(=O)N(C)C[C@H]1Oc2cc(C#CC(C)C)ccc2S(=O)(=O)N([C@@H](C)CO)C[C@H]1C	-	0	0	0	0	-
COCC(=O)N(C)C[C@@H]1Oc2ncc(C#Cc3cccnc3)cc2C(=O)N([C@H](C)CO)C[C@H]1C	-	113[16.7 µM]	0	0	0	-
COCC#Cc1cnc2c(c1)C(=O)N([C@H](C)CO)C[C@H](C)[C@H](CN(C)C(=O)C1CCC1)O2	-	0	0	0	0	-
COCC#Cc1cnc2c(c1)C(=O)N([C@@H](C)CO)C[C@H](C)[C@@H](CN(C)C(=O)C1CCC1)O2	-	0	20	0	0	-
COCC(=O)N(C)C[C@H]1Oc2ncc(C#Cc3ccccc3)cc2C(=O)N([C@@H](C)CO)C[C@H]1C	-	0	0	0	0	-
CC(C)CC#Cc1cnc2c(c1)C(=O)N([C@H](C)CO)C[C@@H](C)[C@H](CN(C)Cc1ccccc1F)O2	-	0	0	0	0	-
CC(C)CC1C(C#N)=C(N)Oc2n[nH]c(-c3ccccc3)c21 (centres undefined)	0	0	0	0	0	32
CC(C)C1C(C#N)=C(N)Oc2n[nH]c(-c3ccccc3)c21 (centres undefined)	-	0	0	0	0	0
Cc1cccc(C(=O)O/N=C(\N)c2cccc([N+](=O)[O-])c2)c1	0	0	0	-	0	0
Cc1ccccc1/C(N)=N/OC(=O)c1cccs1	0	-	-	-	-	0
SMILES	MITF act	miR122 inh	PglD DTNB	esBAF inh	UUG fidelity	Wnt bcat act
N/C(=N\OC(=O)c1cccs1)c1cccc([N+](=O)[O-])c1	0	0	0	75	0	0
CCSc1ccc(/C(N)=N/OC(=O)c2cccs2)cn1	108	0	0	57	0	0
C[C@H](CO)N1C[C@H](C)[C@H](CN(C)C(=O)Nc2ccccc2)Oc2c(NC(=O)c3ccc(-c4nccs4)cc3)cccc2C1=O	-	0	0	0	0	-
CC(=O)Nc1ccc(NC(=O)c2cccc(S(=O)(=O)N3CCCCCC3)c2)cc1	0	0	0	0	0	0
CC(=O)c1ccc(NC(=O)c2cccc(S(=O)(=O)N3CCN(C)CC3)c2)cc1	0	0	0	58	0	0
Cc1ccc(S(=O)(=O)N[C@@H]2CC[C@@H](CC(=O)NCc3ccc(Cl)c(Cl)c3)O[C@@H]2CO)cc1	-	-	0	0	0	-
O=C(CSC(=S)N1CCCC1)c1ccccc1	0	0	0	0	0	45
COC(=O)c1ccc(N2OC3(C)C=CC2CC3)cc1 (centres undefined)	0	0	0	63	0	0
CCc1ccccc1NC(=O)COc1ccc2c(c1)OCO2	0	-	0	-	0	0
Cc1ccc(NC(=O)COc2ccc3c(c2)OCO3)c(Cl)c1	98	0	0	48	0	41
N#Cc1ccccc1NC(=O)COc1ccc2c(c1)OCO2	120	0	0	67	0	0
O=C(CSc1nnc(-c2ccc(F)cc2)o1)NC1CCCCC1	0	0	-	-	-	0
Oc1ccc(-c2nnc(SCC3CCCCC3)o2)cc1	-	0	0	?	0	53
Cc1noc(C)c1NC(=O)N[C@H]1C=C[C@@H](CC(=O)NCc2ccc(Cl)c(Cl)c2)O[C@@H]1CO	-	-	0	0	0	-
O=C(C[C@@H]1C[C@@H]2c3cc(NC(=O)Nc4ccccc4F)ccc3O[C@@H]2[C@H](CO)O1)NCc1ccccn1	-	0	0	0	0	-
COc1ccccc1-c1ccc([C@H]2[C@@H](C#N)N(C(=O)CN(C)C)[C@@H]2CO)cc1	-	-	0	0	-	-
Cc1ccn2cc(-c3cccc(S(=O)(=O)N4CCCC4)c3)nc2c1	0	0	0	47	0	0
Cc1ccn2cc(-c3cnoc3C)nc2c1	0	0	0	0	0	0
COc1c(Cl)cccc1-c1cn2ccc(C)cc2n1	0	-	-	-	-	57
Cc1ccc(S(=O)(=O)N(C)C[C@@H]2Oc3c(NC(=O)Nc4ccc5c(c4)OCO5)cccc3C(=O)N([C@@H](C)CO)C[C@@H]2C)cc1	-	0	0	0	0	-
CC(O)(c1ccccc1)c1nc(-c2ccc(Cl)cc2)cs1 (centres undefined)	-	0	0	0	0	0
CN(C)c1ccc(-c2csc(C(C)(O)c3ccccc3)n2)cc1 (centres undefined)	-	0	0	56	0	0
CC(O)(c1ccccc1)c1nc(-c2cc3ccccc3o2)cs1 (centres undefined)	-	0	0	49	0	0
C[C@@H]1CN([C@H](C)CO)S(=O)(=O)c2ccc(/C=C/c3ccccc3)cc2O[C@H]1CN(C)Cc1cncnc1	-	0	0	0	0	-
Clc1cc2nc(-c3cccnc3Cl)[nH]c2cc1Cl	89	-	0	0	0	47
C[C@@H]1CN([C@H](C)CO)C(=O)c2cc(NS(=O)(=O)c3cn(C)cn3)ccc2O[C@H]1CN(C)Cc1ccc(C(=O)Nc2ccccc2N)cc1	-	0	0	0	0	-
CC(Cc1cnccn1)NC(=O)c1cc(COc2ccc(F)cc2F)on1 (centres undefined)	0	0	0	0	0	0
CCC(NC(=O)c1cc(COc2c(F)cccc2F)on1)c1ccncc1 (centres undefined)	0	-	0	0	0	-
